Consider one compound from US7829708B2, “Metabolically inert antifolates for treating disorders of abnormal cellular proliferation and inflammation” (Chelsea Therapeutics, Inc., priority 2004, dated 2010).

Protein sequences, listed by entry. Tags and fused reporters are not part of them. Lines headed by an entry give the natural chain unless they say otherwise; changes in a name come on top.
UniProt P04818: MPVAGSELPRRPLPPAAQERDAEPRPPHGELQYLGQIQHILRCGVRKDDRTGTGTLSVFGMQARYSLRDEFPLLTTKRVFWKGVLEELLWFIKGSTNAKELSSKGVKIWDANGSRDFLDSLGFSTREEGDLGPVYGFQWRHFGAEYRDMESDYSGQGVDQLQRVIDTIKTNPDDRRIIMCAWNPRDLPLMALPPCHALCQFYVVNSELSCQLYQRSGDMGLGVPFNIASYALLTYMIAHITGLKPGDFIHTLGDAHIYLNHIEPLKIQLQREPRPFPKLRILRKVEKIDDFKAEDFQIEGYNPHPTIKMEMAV

In experiment [1] the target is Human TS (Homo sapiens, UniProt P04818). As to the kind of experiment: Inhibition of recombinant thymidylate synthase in vitro. Conditions: read-out: I50 (Human TS). In kind it is biochemical.
In experiment [2] the target is T1, human DHFR (Homo sapiens, UniProt P00374).
T1 sequence (P00374 1-187): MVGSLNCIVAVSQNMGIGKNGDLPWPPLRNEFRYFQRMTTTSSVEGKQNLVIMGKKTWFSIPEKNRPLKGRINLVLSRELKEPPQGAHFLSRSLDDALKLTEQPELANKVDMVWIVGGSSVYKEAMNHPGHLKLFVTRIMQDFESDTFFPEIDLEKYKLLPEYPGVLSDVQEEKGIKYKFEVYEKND
Nature of the experiment: Inhibition of recombinant dihydrofolate reductase in vitro. In kind it is biochemical. Conditions: read-out: I50 (human DHFR).

Each structure is given as a SMILES string.

Take `Nc1nc2[nH]cc(CCc3ccc(C(=O)N[C@@H](CCC(=O)O)C(=O)O)cc3)c2c(=O)[nH]1` [MTA (LY-231514)]: the IC50 in experiment [1] was 11 µM; in experiment [2], 6.6 µM.
